Source: ChEMBL document CHEMBL5620411, “Perspectives and new aspects of histone deacetylase inhibitors in the therapy of CNS diseases” (Eur J Med Chem, 2023)

What was measured:
in vivo [1] = conditions: C57BL/6, mouse, brain/plasma, ip, 20 mg/kg
in vivo [2] = conditions: C57BL/6, mouse, brain/plasma, ip, 20 mg/kg; remark: listed apart in the source

Kp at 1 h (in vivo [1]): 2.54
Kp at 4 h (in vivo [2]): 4.54
SMILES: O=C(NO)c1ccc(CN2CCCc3cc(Cl)ccc32)cc1
